The values that follow come from EP0572863A1 (dated 1993).

By UniProt entry, the sequences of proteins in these tests, tags left out. Residues count along the entry.
UniProt P28335, 33-458: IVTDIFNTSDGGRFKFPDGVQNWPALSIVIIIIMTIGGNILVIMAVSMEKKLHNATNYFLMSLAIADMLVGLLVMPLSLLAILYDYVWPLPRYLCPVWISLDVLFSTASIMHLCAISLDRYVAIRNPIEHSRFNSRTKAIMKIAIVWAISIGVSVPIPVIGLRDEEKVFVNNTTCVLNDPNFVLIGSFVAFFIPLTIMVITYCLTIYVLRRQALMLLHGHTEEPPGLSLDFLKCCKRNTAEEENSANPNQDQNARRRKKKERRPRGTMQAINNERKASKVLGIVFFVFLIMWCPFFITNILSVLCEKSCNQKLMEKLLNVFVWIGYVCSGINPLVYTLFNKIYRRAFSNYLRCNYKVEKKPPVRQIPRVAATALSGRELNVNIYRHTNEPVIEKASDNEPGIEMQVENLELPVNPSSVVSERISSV
UniProt P28223, whole entry: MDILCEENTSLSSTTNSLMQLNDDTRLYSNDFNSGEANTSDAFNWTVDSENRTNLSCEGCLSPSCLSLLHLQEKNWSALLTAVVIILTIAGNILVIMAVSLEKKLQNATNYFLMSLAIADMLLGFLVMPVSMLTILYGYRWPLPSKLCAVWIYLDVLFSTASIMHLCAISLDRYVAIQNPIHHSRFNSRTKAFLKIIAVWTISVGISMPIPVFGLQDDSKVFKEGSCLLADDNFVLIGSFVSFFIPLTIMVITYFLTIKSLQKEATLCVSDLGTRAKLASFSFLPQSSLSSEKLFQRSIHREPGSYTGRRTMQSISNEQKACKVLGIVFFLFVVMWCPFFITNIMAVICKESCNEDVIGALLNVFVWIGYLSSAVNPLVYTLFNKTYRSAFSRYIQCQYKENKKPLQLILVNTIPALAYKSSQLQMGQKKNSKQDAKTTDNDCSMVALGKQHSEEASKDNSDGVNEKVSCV

Assay [1] deals with 5HT1C-Rezeptor (Homo sapiens, UniProt P28335). The assay can be described thus: 3H-Mesulergin binding test (test method c).
For assay [2], the target named is 5HT₂-Rezeptor (Homo sapiens, UniProt P28223). The assay can be described thus: 3H-Metanserin binding test (test method d).

Usually IC50 stands for the concentration needed to halve the response being measured. Low values mean greater potency, high ones weaker potency.

As to `Clc1cccc(N2CCNCC2)c1` [mCPP, reference compound], the IC50 in assay [1] amounted to 53 nM; in assay [2], 319 nM.
